{"source": "paper PMC6587507", "about": "“Comparison of the metabolism of 10 chemicals in human and pig skin explants” (Journal of Applied Toxicology, 2018)", "key": {"[1]": {"system": "human abdominal skin explants", "details": "cinnamyl alcohol applied to human skin", "procedure": "(§1) Human abdominal skin was obtained (with consent for research from a commercial supplier [L’Union Clinic, Rangueil hospital and Icelltis, Toulouse, France] with certified ethical procedures) from six male and 34 female healthy donors, 41 ± 11 years of age, undergoing cosmetic surgery. Abdominal skin was kept at 4°C during transports and placed in culture within 3 hours of surgery. Pig ear skin was a waste product of the meat industry (without hot steam treatment) from domestic pigs (female Pietrain breed, 6 months old, 80‐100 kg) obtained from a local slaughterhouse (Montauban, France). Ears were taken from the animals within 5 minutes of slaughter and were kept at 4°C during transport to the laboratory, which lasted a maximum of 2 hours. Pig skin samples were dried and then gently shaved.\n(§2) The experiment and the preparation of the culture medium were performed under sterile conditions. […]\n(§3) The dosing volume was 10 μL/cm^2. […] The metabolite profiles for the 48‐hour timepoint are not reported here since humans skin metabolism was measured at 24 hours only; however, for completeness, the distribution of radioactivity at the end of both pig (48 hours) and human (24 hours) skin incubations is reported. […]\n(§4) After centrifugation, a 100 μL aliquot of the extract was counted by liquid scintillation. The pellet was dissolved in 3 mL Soluable (60°C, 24 hours) and then counted by liquid scintillation. […]"}, "pig ear skin explants": {"system": "pig ear skin explants", "details": "cinnamyl alcohol applied to pig skin", "procedure": "as §1, §2, §3, §4"}}}
{"substance": "cinnamic acid glucuronide [VII (cinnamic acid glucuronide)]", "values": [{"measurement": "Amount of metabolite in the medium after 24 h", "setting": "[1]", "value": "0.5 ± 0.1", "unit": "% Applied dose"}, {"measurement": "Amount of metabolite in the medium after 24 h", "setting": "pig ear skin explants", "value": "1.0 ± 0.3", "unit": "% Applied dose"}]}
